Values of other authors as cited in patent US20070031570A1, “Hydrothermically processed compositions containing phytosterols” (Archer-Daniels-Midland Company, priority 2002, published 2007).

Conditions: orally-administered, chronic administration

Substance: neomycin
- toxicity: toxic
